Only some compounds are listed: those with a hit (about 1.7% of all), similar ones and a draw of the others.
CAL PDZ FP-1 – inhibitors of human CAL PDZ peptide binding | purified CAL PDZ, TMR-peptide fluorescence polarization, 1 h | inhibition, % at 20 µM | 330,000 tested, 0.02% active | AID 504414;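 active = highest replicate inhibition of at least 40%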;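 note: plate controls were DMSO neutral control wells for no effect and unlabeled competitor peptide control wells for full effect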
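Read-out basis: mP drop reported as inhibition | Assay system: Tagged CAL PDZ protein CerCALP, purified | Benchmarks: Unlabelled peptide for full inhibition, DMSO wells as neutral | Schedule: 1 h incubation at room temperature before polarization reading | Buffer or medium: Sodium phosphate/NaCl buffer pH 7.4 with TCEP, IgG, Thesit | Doses: Single point, 20 µM | Measured by: Fluorescence polarization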
dFosB act-1 – activators of mouse delta FosB homodimer; purified delta FosB, TAMRA-CDK5 oligo fluorescence polarization; percent of positive-control signal above neutral wells; P13346; 340,000 tested, 0.99% active; activation, % at 25 µM;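 active = mean activation above about 17%, with every replicate also reaching it, limit read from the data, passing the limit was not always enough; inconclusive = only one of the two conditions met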
Dyrk1A ADPGlo – blocks rat Dyrk1A kinase activity; Q63470; ADP-Glo luminescence, NFATc1 peptide; inhibition, % at 12.5 µM; 310,000 tested, 0.43% active; AID 504441; in the data active = inhibition above about 50%;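 note: plate controls were vehicle with enzyme for no effect and no enzyme for full effect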
Yeast UUG start – modulators of yeast start codon fidelity, primary screen, whole organism, S. cerevisiae, single point, plate reader; S. cerevisiae UUG-firefly luciferase reporter, luminescence/redox ratio; activity score, % at 18.7 µM; actives 0.13% (n = 350,000); AID 602363, 2012;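 active = replicate mean at a twofold rise or more, about +100% in these data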;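 also: firefly luciferase made from a UUG start codon reports start codon fidelity; reporter light over untreated wells divided by growth signal over untreated wells; some hits fall short of that in this replicate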
CDK5 inh – CDK5/p35 (human) kinase inhibition | Q00535+Q15078 | Recombinant CDK5/p35, ADP-Glo luminescence, 60 min | inhibition, % at 10 µM | 330,000 tested, 0.01% active;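 active = highest replicate inhibition of at least 50% and at least 75% of replicates reaching 50%; inconclusive = only one of the two criteria met; inactive = both criteria failed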;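 note: plate controls were DMSO neutral control for no effect and GW8510 at 10 µM for full effect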
CAL PDZ FP-2 – CAL PDZ (human) peptide binding inhibition | Q9HD26 | purified CAL PDZ, TMR-peptide fluorescence polarization, 1 h | inhibition, % at 24.9 µM | 300,000 tested, 0.92% active | AID 602252;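 active = mean inhibition of at least 30% with at least half of replicates also reaching 30%; inconclusive = no clear call, values can overlap the other calls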;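 note: 0% = DMSO neutral control and 100% = excess unlabeled competitor peptide PRC23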
dFosB act-2 – enhances mouse delta FosB homodimer binding to DNA | AID 588690 | activation, % at 24.9 µM | 2,400 tested, under 10 active | purified delta FosB, TAMRA-CDK5 oligo fluorescence polarization; normalised: neutral wells 0, positive control 100 | shares compounds with dFosB act-1;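 active = highest replicate activation at or above 34% and every replicate reaching that threshold; inconclusive = meets only one of the two criteria; inactive = meets neither criterion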;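 note: higher polarization means more probe DNA bound by delta FosB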
* = called active by the depositor; ? = inconclusive; . = no result.

Every second line gives: CAL PDZ FP-1	dFosB act-1	Dyrk1A ADPGlo	Yeast UUG start	CDK5 inh	CAL PDZ FP-2	dFosB act-2
1	CO[C@@H]1CN(C)C(=O)c2cc(NC(=O)Nc3ccccc3F)ccc2OC[C@@H](C)N(Cc2ccccc2C(=O)O)C[C@H]1C
 : .	.	.	5	.	.	.
2	CC(CCc1ccco1)NC(=O)CCc1nnc2ccc(NCc3ccccc3Cl)nn12 (configuration not stated)
 : -3	22*	.	-5	.	-2	0
3	CC(=O)n1cc(/C=N/NC(=O)c2cccc(O)c2)c2ccccc21
 : -1	27*	-2	-7	-1	-5	6
4	CCC(=O)Nc1ccc2c(c1)C(=O)N(C)[C@H]1CC[C@H](CC(=O)NCCN3CCCCC3)O[C@@H]1CO2
 : .	.	.	-7	.	.	.
5	COc1cc(NC(=O)c2cccnc2Sc2ccc(C)c(C)c2)cc(OC)c1OC
 : 0	-10	0	6	0	-3	.
6	CC(=O)Nc1ccc(Sc2ncccc2C(=O)Nc2cc(Cl)cc(Cl)c2)cn1
 : -2	82*	2	23	3	-3	-1
7	CC(=O)Nc1ccc(Sc2ncccc2C(=O)Nc2ccc(OC(F)(F)F)cc2)cn1
 : -3	51*	-35	.	-7	-4	4
8	Cn1c(N)c(C(=O)CSc2nn(-c3ccc(F)cc3)c(=S)s2)c(=O)n(C)c1=O
 : -1	52*	.	-3	1	-5	0
9	CN1CCN(S(=O)(=O)c2ccc(Sc3nc4ccccc4[nH]3)c3nsnc23)CC1
 : -1	40*	-2	-22	0	-3	-8
10	COc1ccc(S(=O)(=O)N[C@@H]2C=C[C@H](CC(=O)N3CCc4ccccc4C3)O[C@H]2CO)cc1
 : .	.	.	0	.	.	.
11	CN(C)CC(=O)Nc1ccc2c(c1)[C@@H]1C[C@@H](CC(=O)NCc3ccccc3)O[C@@H](CO)[C@@H]1O2
 : .	.	.	-5	.	.	.
12	CSc1ccccc1NC(=O)Cn1nnc(-c2ccc(S(C)(=O)=O)cc2)n1
 : -1	30*	0	.	1	-3	6
13	C[C@H](CO)N1C[C@H](C)[C@@H](CN(C)C(=O)Cc2ccccc2)Oc2ncc(C#Cc3ccccc3F)cc2C1=O
 : .	.	.	-15	.	.	.
14	COc1ccc(NC(=O)C2CCN(c3nc(-c4ccc(OC)cc4)no3)CC2)cc1
 : -1	29*	3	-11	2	-5	-6
15	COc1ccc(NC(=O)CS(=O)(=O)Cc2nc(-c3ccc(C)cc3)oc2C)cc1
 : -2	-1	-1	.	1	-1	.

Every second line gives: CAL PDZ FP-1	dFosB act-1	Dyrk1A ADPGlo	Yeast UUG start	CDK5 inh	CAL PDZ FP-2	dFosB act-2
16	COc1ccc(-c2nc(CS(=O)(=O)CC(=O)Nc3ccc(Cl)cc3)c(C)o2)cc1
 : -1	45*	6	-5	-2	.	2
17	COc1ccc(CC(=O)Nc2ccc(-c3noc(-c4cc(OC)c(OC)c(OC)c4)n3)cc2)cc1
 : 0	21*	4	-42	0	.	11
18	COc1cc(-c2nc(-c3ccc(NC(=O)c4ccc5c(c4)OCO5)cc3)no2)cc(OC)c1OC
 : -1	43*	-1	-13	.	12	3
19	C[C@H](CO)N1C[C@H](C)[C@@H](CN(C)C(=O)C2CCCCC2)OCCCC[C@H](C)Oc2ccc(NC(=O)Nc3ccc4c(c3)OCO4)cc2C1=O
 : .	.	.	-6	.	.	.
20	COc1ccc(Cc2nc(-c3ccc(Cl)cc3)no2)cc1
 : -2	-2	-1	-41	0	4	.
21	CCOc1ccccc1-c1nc(-c2ccc(NC(=O)Cc3ccc(OC)cc3)cc2)no1
 : 0	25*	1	-3	0	-7	0
22	COc1ccc(CC(=O)Nc2ccc(-c3noc(-c4ccc(Cl)cc4)n3)cc2)cc1
 : -1	60*	-2	-15	1	.	7
23	COc1ccc(NC(=O)CSc2nc(N)c(NC(=O)c3ccccc3F)c(=O)[nH]2)cc1
 : -1	4	2	-14	0	-2	.
24	COc1ccc(CC(=O)Nc2ccc(NC(=O)c3ccccc3F)cc2)cc1
 : -2	20*	2	.	-2	-3	-1
25	COc1ccc(CC(=O)Nc2ccc(-c3noc(COc4ccccc4C)n3)cc2)cc1
 : 0	12	-5	-14	0	0	.
26	Cc1ccccc1-c1cnc2c(c1)C(=O)N([C@@H](C)CO)C[C@@H](C)[C@@H](CN(C)CC1CC1)O2
 : .	.	.	4	.	.	.
27	C[C@H](CO)N1C[C@H](C)[C@H](CN(C)CC2CCCCC2)Oc2ccc(NS(=O)(=O)c3cn(C)cn3)cc2C1=O
 : .	.	.	-5	.	.	.
28	CCC(=O)N[C@H]1CC[C@H](CC(=O)NCc2ccc(OC)cc2)O[C@H]1CO
 : .	.	.	-1	.	.	.
29	COc1cccc(NC(=O)c2cc(C(=O)Nc3cccc(OC)c3)n(C)n2)c1
 : -2	4	9	-4	-2	-5	.
30	Cn1nc(C(=O)Nc2ccc(Br)cc2)cc1C(=O)Nc1ccc(Br)cc1
 : -1	40*	.	3	1	.	5

Every second line gives: CAL PDZ FP-1	dFosB act-1	Dyrk1A ADPGlo	Yeast UUG start	CDK5 inh	CAL PDZ FP-2	dFosB act-2
31	COc1ccccc1-c1ccc2c(c1)[C@@H]1[C@@H](CCN1S(=O)(=O)c1cn(C)cn1)[C@@H](CO)N2
 : .	.	.	-3	.	.	.
32	COc1ccc(CNC(=O)C[C@H]2C=C[C@H](NC(=O)CN(C)C)[C@@H](CO)O2)cc1
 : .	.	.	-12	.	.	.
33	CC(C)NC(=O)C1CCCN(c2nnc(-n3cccc3)s2)C1 (configuration not stated)
 : 0	-4	2	-2	-1	.	.
34	CC(=O)Nc1ccc(NC(=O)C2CCCN(c3nnc(-n4cccc4)s3)C2)cc1 (configuration not stated)
 : -1	31*	-2	.	2	0	0
35	C[C@@H]1CCCCO[C@@H](CN(C)Cc2ccc(C(=O)Nc3ccccc3N)cc2)[C@@H](C)CN([C@H](C)CO)C(=O)c2cc(NC(=O)Nc3ccc4c(c3)OCO4)ccc2O1
 : .	.	.	-11	.	.	.
36	CCN1Cc2c(/C=C/c3ccccc3)nc3ccc(OC)cc3c2N(c2cccc(Cl)c2)C1
 : 1	21*	0	.	1	-6	4
37	CCc1ccc2oc(C(=O)NCC(c3ccc(OC)cc3)N3CCCCC3)c(C)c2c1 (configuration not stated)
 : -1	21*	0	-2	-2	-2	0
38	COc1ccc(C(CNC(=O)c2oc3ccc(OC)cc3c2C)N2CCCC2)cc1 (configuration not stated)
 : -1	10	2	3	-4	-4	.
39	Cc1cccc(-c2nsc(SCC(=O)Nc3ccc4c(c3)OCO4)n2)c1
 : 0	20*	-4	.	-1	-7	0
40	CCOC(=O)Nc1ccc2c(COC(=O)CNS(=O)(=O)c3cccc(Br)c3)cc(=O)oc2c1
 : -1	?	2	-11	0	-2	.
41	CCOC(=O)Nc1ccc2c(COC(=O)CN(C)S(=O)(=O)c3ccc(C)cc3)cc(=O)oc2c1
 : -1	36*	-2	-17	1	-6	7

Five of these compounds, reformatted.
# | molecule | CAL PDZ FP-1 | dFosB act-1 | Dyrk1A ADPGlo | Yeast UUG start | CDK5 inh | CAL PDZ FP-2 | dFosB act-2
31 | COc1ccccc1-c1ccc2c(c1)[C@@H]1[C@@H](CCN1S(=O)(=O)c1cn(C)cn1)[C@@H](CO)N2 | . | . | . | -3 | . | . | .
32 | COc1ccc(CNC(=O)C[C@H]2C=C[C@H](NC(=O)CN(C)C)[C@@H](CO)O2)cc1 | . | . | . | -12 | . | . | .
33 | CC(C)NC(=O)C1CCCN(c2nnc(-n3cccc3)s2)C1 (configuration not stated) | 0 | -4 | 2 | -2 | -1 | . | .
34 | CC(=O)Nc1ccc(NC(=O)C2CCCN(c3nnc(-n4cccc4)s3)C2)cc1 (configuration not stated) | -1 | 31* | -2 | . | 2 | 0 | 0
35 | C[C@@H]1CCCCO[C@@H](CN(C)Cc2ccc(C(=O)Nc3ccccc3N)cc2)[C@@H](C)CN([C@H](C)CO)C(=O)c2cc(NC(=O)Nc3ccc4c(c3)OCO4)ccc2O1 | . | . | . | -11 | . | . | .

Source: PubChem (Broad Institute)
